Our source for the IC50 values is ChEMBL document CHEMBL1124660, “Synthesis and in vitro aldose reductase inhibitory activity of compounds containing an N-acylglycine moiety” (J Med Chem, 1989).

Usually IC50 stands for the concentration at which inhibition is half-maximal. High values mean a need for much substance, low ones inhibition by little substance.

The test deals with Aldo-keto reductase family 1 member B1 (Rattus norvegicus, UniProt P07943). The test can be described thus: Inhibition of aldose reductase from rat lens. Value ranges from 0.07 - 1.2.

Compound `O=C1NC(=O)[C@@]2(CCOc3ccc(F)cc32)N1` [SORBINIL] yielded an IC50 of 230 nM.
